Here are results for one molecule from ChEMBL document CHEMBL1143532 (Bioorg Med Chem Lett, 2005).

Protein sequences, listed by entry. Tags and fused reporters are not part of them.
UniProt Q05941, whole entry: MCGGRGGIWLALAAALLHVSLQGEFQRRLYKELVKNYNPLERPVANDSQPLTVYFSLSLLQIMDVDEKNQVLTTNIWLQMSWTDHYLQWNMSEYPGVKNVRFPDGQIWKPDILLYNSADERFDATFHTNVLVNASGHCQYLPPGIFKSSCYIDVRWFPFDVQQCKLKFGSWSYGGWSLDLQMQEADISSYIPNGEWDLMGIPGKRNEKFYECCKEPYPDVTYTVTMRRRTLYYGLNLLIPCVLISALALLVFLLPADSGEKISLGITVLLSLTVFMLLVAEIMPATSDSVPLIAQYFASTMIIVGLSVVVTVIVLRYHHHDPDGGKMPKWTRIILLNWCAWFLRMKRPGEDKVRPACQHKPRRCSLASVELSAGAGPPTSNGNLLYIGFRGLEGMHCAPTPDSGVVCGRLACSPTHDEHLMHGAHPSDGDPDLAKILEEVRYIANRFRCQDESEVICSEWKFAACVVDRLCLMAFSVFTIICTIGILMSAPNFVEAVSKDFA

The experiment concerns the target Neuronal acetylcholine receptor subunit alpha-7 (Rattus norvegicus, UniProt Q05941). The experiment in a line: Inhibitory constant against [3H]methyllycaconitine binding towards Nicotinic acetylcholine receptor alpha-7 of rat brain hippocampus. The experiment is classed as tissue-based.

The structures appear in SMILES notation.

For orientation: Ki means a dissociation constant, usually derived from enzyme kinetics or from competition with a known ligand. Read a low Ki as a stronger hold on the target. The molecule `O=C(NC1CC1c1ccccc1)N[C@@H]1C2CCN(CC2)[C@@H]1Cc1cccnc1` (stereo partly specified) returned a Ki of 0.104 µM.
